Test results as given in patent US11648295B2, “Methods of treating diseases resulting from a maladapted stress response” (Cortene Inc., priority 2016, dated 2023).
Like-named read-outs stand apart in the source and are kept apart here.

Experiments:
[1] = molecular target: T1, CRFR1 (Homo sapiens, UniProt P34998); experiment: in vitro binding potential for CRFR1 (table of FIG. 10); format: biochemical
T1 sequence (P34998 24-415): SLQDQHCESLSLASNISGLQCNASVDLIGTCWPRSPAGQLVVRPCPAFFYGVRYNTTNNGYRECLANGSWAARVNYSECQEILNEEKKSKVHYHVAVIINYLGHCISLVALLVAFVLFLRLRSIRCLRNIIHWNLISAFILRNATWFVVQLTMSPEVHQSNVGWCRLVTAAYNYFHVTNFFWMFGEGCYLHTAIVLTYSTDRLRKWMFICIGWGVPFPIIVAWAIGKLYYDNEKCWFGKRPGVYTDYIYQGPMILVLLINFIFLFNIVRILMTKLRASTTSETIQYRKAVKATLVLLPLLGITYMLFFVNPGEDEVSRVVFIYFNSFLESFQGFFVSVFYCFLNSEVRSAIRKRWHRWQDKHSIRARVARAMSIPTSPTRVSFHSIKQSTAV

[2] = system: female Sprague Dawley rats; experiment: Example 8: escalating continuous s.c. infusion, telemetry of heart rate and blood pressure; format: in vivo, rat
From the text: The heart rate data of FIG. 8A further emphasized that sustained stimulation of CRFR2 (via continuous infusion) reduced the ability of a CRFR2 agonist to induce a heart rate increase, but in a progressive, time-dependent manner.

[3] = molecular target: CRFR1 (Homo sapiens, UniProt P34998); experiment: EC50, nmol (% of Emax) | CRFR1
From the text: (§1) Table printed on a drawing sheet, FIGURE 10
(§2) Title: Pharmacokinetic Parameters
Head of the field: EC50, nmol (% of Emax) | CRFR1
(§3) Footnotes: FIGURE 10: Effect of maximum or steady state plasma concentrations (Cmax or Css) of various CRFR2 agonists (CT38, SCP or Ucn2), dosed by subcutaneous bolus (triangles) or intravenous infusion (circles), on the maximum heart rate (HRmax) in healthy subjects (solid lines) or stable congestive heart failure patients (dashed lines). The table provides comparative pharmacokinetic parameters for the CRFR2 agonists.
(§4) That is, for strongly potent CRFR2 agonists and relative intermediate plasma concentrations, the loss of the ability to induce a heart rate increase via continuous dosing, was driven by the duration of dosing, and appeared to occur with different selective CRFR2 agonists (e.g., Ucn2, stresscopin), irrespective of the condition of the human subject.
First copying reader's note: Each EC50 cell holds the EC50 in nmol with the % of Emax in brackets after it.
Where the first naming reader finds the target: head: EC50, nmol (% of Emax) | CRFR1

[4] = system: healthy human subjects; experiment: Example 9: Phase 1 single ascending dose trial, s.c. bolus; format: in vivo; conditions: instantaneous (bolus) plasma concentration, healthy humans, FIG. 10
Protocol: (§5) In a Phase 1 human single ascending dose clinical trial (2005051), CT38s was dosed by subcutaneous injection (bolus) in cohorts of human subjects (each cohort receiving the same dose; rising dose across cohorts). The purpose of this trial was to determine the maximum tolerated bolus dose of CT38s in healthy human subjects.

[5] = as above; format: in vivo, human; conditions: male, plasma, sc, healthy human subjects
Protocol: as §5

[6] = Pharmacokinetic Parameters
From the text: as §1, §2, §3, §4
First reader's note: Each EC50 cell holds the EC50 in nmol with the % of Emax in brackets after it.

[7] = system: male Sprague Dawley rats; experiment: Example 5: stress hormones in venous blood after s.c. bolus; format: in vivo, rat; conditions: normal rats
[8] = continuous (infusion) s.c. dosing, rats
[9] = system: male and female Sprague Dawley rats; experiment: Example 7: heart rate, blood pressure, temperature versus plasma concentration, s.c. bolus versus continuous infusion; format: in vivo, rat; conditions: for effect of escalating plasma concentrations on heart rate, blood pressure, body temperature: regardless of duration of dosing; for effect on heart rate, blood pressure, body temperature: intermediate plasma levels (~1 to ~11 ng/ml)
From the text: The magnitude of the induced changes in heart rate, blood pressure and body temperature in FIGS. 7A, 7B and 7C, likely resulted from the balance between direct agonist effect (dependent upon the concentration of the CRFR2 agonist) and the loss of agonist effect, both via metabolism (reducing the concentration of the agonist) as well as CRFR2 endocytosis (reducing the availability of the receptor). […] Thus for the specific agonist (CT38) and route of administration (subcutaneous) in Example 7, for a given agonist concentration at the receptor, differences between bolus and infused dosing were attributable solely to the duration of CRFR2 stimulation.
The heart rate under stress (but not the tonic regulation) is modulated by CRFR2 in the BNST. […] Thus, the lowest concentration of a 24-hour subcutaneous infusion of CT38 that caused CRFR2 endocytosis in the BNST of rats (i.e., where the curve for continuous dosing passes through the point of maximum heart rate decrease) was ˜1.0-2.0 ng/ml of sustained stimulation in rats, or a human equivalent of 1.1-1.6 ng/ml (based on pharmacokinetic-pharmacodynamic modeling, using human data from Example 9). The lowest concentration of a subcutaneous bolus of CT38 to induce CRFR2 endocytosis in the BNST of rats (i.e., where the curve for instantaneous dosing passes through the point of maximum heart rate increase) was 20.0 ng/ml (or a human equivalent of ˜3.2 ng/ml based on pharmacokinetic-pharmacodynamic modeling, using human data from Example 9), but only after inducing unacceptable changes in heart rate, blood pressure and body temperature.
Body temperature is controlled by the release of 5HT in the medial preoptic area of the hypothalamus, specifically involving post-synaptic 5HT2 receptors and presynaptic 5HT1A receptors. FIG. 7C identifies the lowest concentration of a 24-hour subcutaneous infusion of CT38 that caused CRFR2 endocytosis in the medial preoptic area of the hypothalamus of rats (i.e., where the curves for instantaneous and continuous dosing separate) was ˜1.0-3.0 ng/ml of sustained stimulation in rats, or a human equivalent of 1.1-1.9 ng/ml (based on pharmacokinetic-pharmacodynamic modeling, using human data from Example 9). The lowest concentration of a subcutaneous bolus of CT38 to induce CRFR2 endocytosis in the medial preoptic area of the hypothalamus of rats (i.e., where the curve for instantaneous dosing approaches the minimum temperature) was 20.0 ng/ml (or a human equivalent of ˜3.2 ng/ml based on pharmacokinetic-pharmacodynamic modeling, using human data from Example 9), but only after inducing intolerable changes in heart rate, blood pressure and body temperature.

[10] = pharmacokinetic-pharmacodynamic modeling using human data from Example 9

Which results are given for `CC[C@H](C)[C@H](NC(=O)[C@@H](NC(=O)[C@H](CC(=O)O)NC(=O)[C@H](CC(C)C)NC(=O)[C@H](CC(C)C)NC(=O)[C@H](CCCNC(=N)N)NC(=O)[C@H](C)NC(=O)[C@H](CC(N)=O)NC(=O)[C@H](CC(N)=O)NC(=O)[C@H](C)NC(=O)[C@H](C)NC(=O)[C@H](CCC(N)=O)NC(=O)[C@H](CCC(N)=O)NC(=O)[C@H](CCCCN)NC(=O)[C@H](CCC(=O)O)NC(=O)[C@H](CCCCN)NC(=O)[C@H](CCC(=O)O)NC(=O)[C@H](CCC(N)=O)NC(=O)[C@H](CCCCN)NC(=O)[C@H](CCC(=O)O)NC(=O)[C@@H](NC(=O)[C@H](CCC(=O)O)NC(=O)[C@@H](NC(=O)[C@@H](NC(=O)[C@H](CCCCN)NC(=O)[C@H](CCCNC(=N)N)NC(=O)[C@H](CC(C)C)NC(=O)[C@H](CC(C)C)NC(=O)[C@H](CCC(N)=O)NC(=O)[C@H](Cc1ccccc1)NC(=O)[C@@H]1CCCN1C(=O)[C@H](CC(C)C)NC(=O)[C@H](CC(=O)O)NC(=O)[C@@H](NC(=O)[C@H](CO)NC(=O)[C@@H](NC(=O)[C@@H]1CCCN1C(=O)[C@@H]1CCCN1C(=O)CNC(=O)[C@@H]1CCC(=O)N1)[C@@H](C)CC)[C@@H](C)CC)C(C)C)[C@@H](C)CC)[C@@H](C)CC)[C@@H](C)O)C(N)=O` [CT38]?
in vitro binding potential for CRFR1 [1]: minimal, at high concentrations; tachycardia during infusion ([2]; 30 µg/kg/day, within 4 hours): absence of any observed tachycardia; receptor resensitization ([2]; 15-day period of sustained stimulation): no evidence to suggest receptor resensitization; heart rate on escalation to the next dose level ([2]; after 72 hours sustained stimulation per dose level, 30 to 10,000 µg/kg/day s.c. infusion): unable to increase the heart rate to prior levels; blood pressure or vasodilatory effect under sustained stimulation ([2]; escalating continuous s.c. infusion): not accompanied by a corresponding diminishment of blood pressure or vasodilatory effect; EC50, nmol (% of Emax) | CRFR1 [3]: > 1000 (53) nmol (% of Emax); effect of plasma concentration on heart rate [4]: induced an increasing effect on the heart rate; Cmax ([5]; 0.2 ug/kg, s.c. bolus 0.200 µg/kg): 0.32 ng/mL; Cmax ([5]; 0.833 ug/kg, s.c. bolus 0.833 µg/kg, read-out: lowest maximum plasma concentration (Cmax) to cause tachycardia (100 beats/minute)): 1.56 ng/mL; Cmax ([5]; 1.667 ug/kg, s.c. bolus 1.667 µg/kg): 2.46 ng/mL; t1/2 (hours) | 30-min IV infusion [6]: 0.7 h; t1/2 (hours) | subQ bolus [6]: 0.9 h; effect on corticosterone ([7]; at 2 hours post-dose): significant increases; effect on norepinephrine ([7]; at 2 hours post-dose): significant increases; changes in aldosterone [7]: not significant; changes in epinephrine [7]: not significant; norepinephrine and corticosterone returning to control values [7]: 4 hours post-dose; time to reach steady state plasma concentration [8]: ~5.2 h; minimum endocytotic concentration (plasma) ([9]; healthy humans, from Example 7): 1.1 to 1.9 ng/mL; effect of escalating plasma concentrations on heart rate, blood pressure, body temperature ([9]; high plasma levels (~11 ng/ml and above), rats): a loss of the ability to induce an increase in heart rate or a decrease in blood pressure and body temperature; effect on heart rate, blood pressure, body temperature ([9]; continuous dosing (infusion), rats): resulted in a loss of the ability to induce an increase in heart rate or a decrease in blood pressure or body temperature; effect on heart rate, blood pressure, body temperature ([9]; instantaneous dosing (bolus), rats): caused an increase in heart rate and a decrease in blood pressure and body temperature; effect of escalating plasma concentrations on heart rate, blood pressure, body temperature ([9]; low plasma concentrations (~1 ng/ml and below), rats): increased heart rate and decreased blood pressure and body temperature (very slightly); human equivalent of lowest bolus concentration inducing CRFR2 endocytosis in the BNST [9, 10]: ~3.2 ng/mL; human equivalent of lowest bolus concentration inducing CRFR2 endocytosis in the medial preoptic area of the hypothalamus [9, 10]: ~3.2 ng/mL; human equivalent of lowest infusion concentration causing CRFR2 endocytosis in the BNST [9, 10]: 1.1 to 1.6 ng/mL; human equivalent of lowest infusion concentration causing CRFR2 endocytosis in the medial preoptic area of the hypothalamus [9, 10]: 1.1 to 1.9 ng/mL; plasma concentration at which tachycardia was caused by instantaneous (bolus) dosing ([9]; rats): 1.30 ng/mL; lowest concentration of a s.c. bolus to induce CRFR2 endocytosis in the medial preoptic area of the hypothalamus ([9]; rats, only after intolerable changes in heart rate, blood pressure, body temperature): 20.0 ng/mL; lowest concentration of a s.c. bolus to induce CRFR2 endocytosis in the BNST ([9]; rats, only after unacceptable changes in heart rate, blood pressure, body temperature): 20.0 ng/mL; lowest concentration of a 24-hour s.c. infusion that caused CRFR2 endocytosis in the medial preoptic area of the hypothalamus ([9]; rats, sustained stimulation, from body temperature curves FIG. 7C): 1.0 to 3.0 ng/mL; lowest concentration of a 24-hour s.c. infusion that caused CRFR2 endocytosis in the BNST ([9]; rats, sustained stimulation, from heart rate curve FIG. 7A): 1.0 to 2.0 ng/mL
